# Biological target: JAK2 (recombinant purified GST-tagged catalytic domain) (Homo sapiens (Human), UniProt O60674)
# Protein sequences, listed by entry. Tags and fused reporters are not part of them. Residues count along the entry.
# UniProt O60674, 849-1124: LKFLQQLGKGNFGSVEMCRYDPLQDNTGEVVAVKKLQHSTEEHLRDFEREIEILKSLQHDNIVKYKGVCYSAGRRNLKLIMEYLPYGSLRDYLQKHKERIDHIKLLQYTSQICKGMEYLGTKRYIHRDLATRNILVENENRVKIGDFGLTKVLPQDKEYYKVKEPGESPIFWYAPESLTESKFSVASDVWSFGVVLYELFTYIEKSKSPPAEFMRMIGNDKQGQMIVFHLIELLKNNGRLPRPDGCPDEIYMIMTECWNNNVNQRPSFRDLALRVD
# Test: biochemical
# 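Note: biochemical JAK kinase assay with HTRF detection.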
row,IC50 [nM],SMILES
1,115,"N#C[C@H]1C[C@@H](C(=O)N2CCC(F)(F)C2)CC[C@@H]1n1cc(C(N)=O)c(Nc2ccc(Cl)cc2)n1 (single isomer, unassigned) [Example 35-28, 3-[(4-chlorophenyl)amino]-1-{(1S,2S,4S or 1R,2R,4R)-2-cyano-4-[(3,3-difluoropyrrolidin-1-yl)carbonyl]cyclohexyl}-1H-pyrazole-4-carboxamide]"
2,12,"N#C[C@H]1C[C@@H](O)CC[C@@H]1n1cc(C(N)=O)c(Nc2ccc(Cl)c(F)c2)n1 (single isomer, unassigned) [Example 33-3, 3-[(4-chloro-3-fluorophenyl)amino]-1-[(1S,2S,4S or 1R,2R,4R)-2-cyano-4-hydroxycyclohexyl]-1H-pyrazole-4-carboxamide]"
3,3,"CC(C)(c1ccc(Nc2nn([C@H]3CC[C@](C)(O)C[C@@H]3C#N)cc2C(N)=O)cc1)C(O)C(F)(F)F (single isomer, unassigned) [Example 32-3, 1-[(1S,2S,4S or 1R,2R,4R)-2-cyano-4-hydroxy-4-methylcyclohexyl]-3-{[4-(3,3,3-trifluoro-(2R or 2S)-hydroxy-1,1-dimethylpropyl)phenyl]amino}-1H-pyrazole-4-carboxamide]"
4,46,"N#C[C@H]1C[C@H](O)CCC1n1cc(C(N)=O)c(Nc2ccnc(F)c2)n1 (mixture of isomers) [Example 15, 1-[(1S,2S,4R and 1R,2R,4S)-2-Cyano-4-hydroxycyclohexyl]-3-[(2-fluoropyridin-4-yl)amino]-1H-pyrazole-4-carboxamide]"
5,1,"N#C[C@@H]1CCCCC1n1cc(C(N)=O)c(Nc2ccc(S(=O)(=O)CC(F)(F)F)cc2)n1 (single isomer, unassigned) [Example 43-8, 1-[(1S,2S or 1R,2R)-2-cyanocyclohexyl]-3-({4-[(2,2,2-trifluoroethyl)sulfonyl]phenyl}amino)-1H-pyrazole-4-carboxamide]"
6,620,"CN(C)[C@H]1CC[C@H](n2cc(C(N)=O)c(Nc3ccc(F)cc3)n2)[C@@H](C#N)C1 (single isomer, unassigned) [Example 28-129, 1-[(1S,2S,4S or 1R,2R,4R)-2-cyano-4-(dimethylamino)cyclohexyl]-3-[(4-fluorophenyl)amino]-1H-pyrazole-4-carboxamide]"
7,1,"CC(C)NS(=O)(=O)c1ccc(Nc2nn([C@H]3CCCC[C@@H]3C#N)cc2C(N)=O)cc1 (single isomer, unassigned) [Example 17-93, 1-[(1R,2R or 1S,2S)-2-cyanocyclohexyl]-3-({4-[(1-methylethyl)sulfamoyl]phenyl}amino)-1H-pyrazole-4-carboxamide]"
8,102,"N#C[C@H]1C[C@@H](NC2CCOCC2)CCC1n1cc(C(N)=O)c(Nc2ccc(Cl)cc2)n1 (single isomer, unassigned) [Example 28-218, 3-[(4-chlorophenyl)amino]-1-[(1S,2S,4S or 1R,2R,4R)-2-cyano-4-(tetrahydro-2H-pyran-4-ylamino)cyclohexyl]-1H-pyrazole-4-carboxamide]"
9,2,"CC(=O)c1ccc(Nc2nn([C@H]3CCCC[C@@H]3C#N)cc2C(N)=O)cc1 (single isomer, unassigned) [Example 17-27, 3-[(4-acetylphenyl)amino]-1-[(1S,2S or 1R,2R)-2-cyanocyclohexyl]-1H-pyrazole-4-carboxamide]"
10,355,"C[C@H]1C[C@H](C)N1[C@@H]1CC[C@H](n2cc(C(N)=O)c(Nc3ccc(C(F)(F)F)cc3)n2)[C@@H](C#N)C1 (single isomer, unassigned) [Example 28-20, 1-{(1S,2S,4R or 1R,2R,4S)-2-cyano-4-[(2S,4S or 2R,4R)-2,4-dimethylazetidin-1-yl]cyclohexyl}-3-{[4-(trifluoromethyl)phenyl]amino}-1H-pyrazole-4-carboxamide]"
11,8,"CC(C)N[C@H]1CC[C@H](n2cc(C(N)=O)c(Nc3ccc(S(=O)(=O)C(F)(F)F)cc3)n2)[C@@H](C#N)C1 (single isomer, unassigned) [Example 28-174, 1-{(1S,2S,4S or 1R,2R,4R)-2-cyano-4-[(1-methylethyl)amino]cyclohexy}-3-({4-[(trifluoro-methyl)sulfonyl]phenyl}amino)-1H-pyrazole-4-carboxamide]"
12,4,"C[C@@]1(O)CC[C@H](n2cc(C(N)=O)c(Nc3ccc([C@](C)(O)C(F)(F)F)cc3)n2)[C@@H](C#N)C1 (single isomer, unassigned) [Example 32-9, 1-[(1S,2S,4R or 1R,2R,4S)-2-cyano-4-hydroxy-4-methylcyclohexyl]-3-({4-[(1S or 1R)-2,2,2-trifluoro-1-hydroxy-1-methylethyl]phenyl}amino)-1H-pyrazole-4-carboxamide]"
13,8,"N#C[C@H]1C[C@H](N2CCC2)CC[C@@H]1n1cc(C(N)=O)c(Nc2ccc(CC(F)(F)F)cc2)n1 (single isomer, unassigned) [Example 28-53, 1-[(1S,2S,4R or 1R,2R,4S)-4-azetidin-1-yl-2-cyanocyclohexyl]-3-{[4-(2,2,2-trifluoroethyl)phenyl]amino}-1H-pyrazole-4-carboxamide]"
14,16,"N#C[C@H]1C[C@@H](NCC(F)(F)F)CC[C@@H]1n1cc(C(N)=O)c(Nc2ccnc(F)c2)n1 (single isomer, unassigned) [Example 28-111, 1-{(1S,2S,4S or 1R,2R,4R)-2-cyano-4-[(2,2,2-trifluoroethyl)amino]cyclohexyl}-3-[(2-fluoropyridin-4-yl)amino]-1H-pyrazole-4-carboxamide]"
15,44,"CN(C)[C@H]1CC[C@H](n2cc(C(N)=O)c(Nc3ccc(F)cc3)n2)[C@@H](C#N)C1 (single isomer, unassigned) [Example 28-94, 1-[(1S,2S,4S or 1R,2R,4S)-2-cyano-4-(dimethylamino)cyclohexyl]-3-[(4-fluorophenyl)amino]-1H-pyrazole-4-carboxamide]"
16,23,"N#C[C@H]1C[C@@H](C(=O)N2CC(F)C2)CC[C@@H]1n1cc(C(N)=O)c(Nc2ccc(Cl)cc2)n1 (single isomer, unassigned) [Example 35-34, 3-[(4-chlorophenyl)amino]-1-{(1S,2S,4S or 1R,2R,4R)-2-cyano-4-[(3-fluoroazetidin-1-yl)carbonyl]cyclohexyl}-1H-pyrazole-4-carboxamide]"
17,38,"COCC(C)N[C@H]1CCC(n2cc(C(N)=O)c(Nc3ccc(Cl)cc3)n2)[C@@H](C#N)C1 (single isomer, unassigned) [Example 28-238, 3-[(4-chlorophenyl)amino]-1-[(1S,2S,4S or 1R,2R,4R)-2-cyano-4-{[(1S)-2-methoxy-1-methylethyl]amino}cyclohexyl]-1H-pyrazole-4-carboxamide]"
18,121,"N#C[C@H]1C[C@@H](N2CC3(CCC3)C2)CC[C@@H]1n1cc(C(N)=O)c(Nc2ccc(C(F)(F)F)cc2)n1 (single isomer, unassigned) [Example 28-17, 1-[(1S,2S,4S or 1R,2R,4R)-4-(2-azaspiro[3.3]hept-2-yl)-2-cyanocyclohexyl]-3-{[4-(trifluoromethyl)phenyl]amino}-1H-pyrazole-4-carboxamide]"
19,13,"CN(C)[C@H]1CC[C@H](n2cc(C(N)=O)c(Nc3ccc(OC(F)F)cc3)n2)[C@@H](C#N)C1 (single isomer, unassigned) [Example 28-104, 1-[(1S,2S,4S or 1R,2R,4R)-2-cyano-4-(dimethylamino)cyclohexyl]-3-{[4-(difluoromethoxy)phenyl]amino}-1H-pyrazole-4-carboxamide]"
20,33,"COCC(C)N[C@H]1CCC(n2cc(C(N)=O)c(Nc3ccc(Cl)cc3)n2)[C@@H](C#N)C1 (single isomer, unassigned) [Example 28-237, 3-[(4-chlorophenyl)amino]-1-[(1S,2S,4S or 1R,2R,4R)-2-cyano-4-{[(1S)-2-methoxy-1-methylethyl]amino}cyclohexyl]-1H-pyrazole-4-carboxamide]"
21,9,"C[C@]1(O)CC[C@H](n2cc(C(N)=O)c(Nc3ccc(Cl)cc3)n2)[C@@H](C#N)C1 (single isomer, unassigned) [Example 32-10, 3-[(4-chlorophenyl)amino]-1-[(1S,2S,4S or 1R,2R,4R)-2-cyano-4-hydroxy-4-methylcyclohexyl]-1H-pyrazole-4-carboxamide]"
22,200,"N#C[C@@H]1C[C@H](C(=O)N2CC(F)C2)CC[C@H]1n1cc(C(N)=O)c(Nc2ccc(Cl)cc2)n1 (single isomer, unassigned) [Example 35-33, 3-[(4-chlorophenyl)amino]-1-{(1R,2R,4R or 1S,2S,4S)-2-cyano-4-[(3-fluoroazetidin-1-yl)carbonyl]cyclohexyl}-1H-pyrazole-4-carboxamide]"
23,15,"C[C@@](O)(c1ccc(Nc2nn([C@H]3CCCC[C@@H]3C#N)cc2C(N)=O)cn1)C(F)(F)F (single isomer, unassigned) [Example 17-35, 1-[(1S,2S or 1R,2R)-2-cyanocyclohexyl]-3-({6-[(1R or 1S)-2,2,2-trifluoro-1-hydroxy-1-methylethyl]pyridin-3-yl}amino)-1H)-pyrazole-4-carboxamide]"
24,5,"CNC1CCC(n2cc(C(N)=O)c(Nc3ccc(S(=O)(=O)C(F)(F)F)cc3)n2)[C@@H](C#N)C1 (mixture of isomers) [Example 27-6, 1-[(1S,2S and 1R,2R)-2-cyano-4-(methylamino)cyclohexyl]-3-({4-[(trifluoromethyl)sulfonyl]phenyl}amino)-1H-pyrazole-4-carboxamide]"
25,11,"N#C[C@H]1C[C@H](O)CCC1n1cc(C(N)=O)c(Nc2ccnc(F)c2)n1 (single isomer, unassigned) [Example 25-21, 1-[(1S,2S,4R or 1R,2R,4S)-2-cyano-4-hydroxycyclohexyl]-3-[(2-fluoropyridin-4-yl)amino]-1H-pyrazole-4-carboxamide]"
26,4,"C[C@]1(O)CC[C@H](n2cc(C(N)=O)c(Nc3ccc([C@](C)(O)C(F)(F)F)cc3)n2)[C@@H](C#N)C1 (single isomer, unassigned) [Example 32-8, 1-[(1S,2S,4S or 1R,2R,4R)-2-cyano-4-hydroxy-4-methylcyclohexyl]-3-({4-[(1S or 1R)-2,2,2-trifluoro-1-hydroxy-1-methylethyl]phenyl}amino)-1H-pyrazole-4-carboxamide]"
